These results are taken from US8623821B2, “Zymogen activators” (Genentech, Inc., priority 2011, dated 2014).

The test system of the test is BxPC-3 cells. Put plainly: BxPC-3 cell survival assay, HGF proteins alone. The test is classed as cell-based, human. The method, then:
BxPC-3 cells were obtained from ATCC and maintained in cell culture medium (RPMI, 10% FBS (Sigma), 50 U/ml penicillin/50 μg/ml streptomycin, 2 mM glutamine). For the survival assay, cells were plated at 10,000 cells/well in 96 well tissue culture plates (Falcon 353072) in 50 μl assay diluent (RPMI, 0.1% BSA (Sigma) 50 U/ml penicillin/50 μg/ml streptomycin, 2 mM glutamine). Cells were allowed to attach for 1-2 h in a 37° C. CO2 incubator. Human HGF proteins (HGF, scHGF or scHGF plus peptide titrations) were pre-incubated at room temperature in assay diluent. HGF/peptide mixtures were added to cells in microtiter plates in triplicate at 50 μl per well and plates were incubated at 37° C. in a CO2 incubator. […] After 72 h, 25 μl alamar Blue (Serotec, BUF012B) was added to each well and incubate an additional 2 h at 37° C. in a CO2 incubator. Plates were agitated vigorously for 10 min at room temperature, and fluorescence was read at 530-590 nm in a fluorescent plate reader.

B1: scHGF: non-cleavable form of pro-HGF, inactive as a Met ligand (protein)
chain: QRKRRNTIHEFKKSAKTTLIKIDPALKIKTKKVNTADQCANRCTRNKGLPFTCKAFVFDKARKQCLWFPFNSMSSGVKKEFGHEFDLYENKDYIRNCIIGKGRSYKGTVSITKSGIKCQPWSSMIPHEHSFLPSSYRGKDLQENYCRNPRGEEGGPWCFTSNPEVRYEVCDIPQCSEVECMTCNGESYRGLMDHTESGKICQRWDHQTPHRHKFLPERYPDKGFDDNYCRNPDGQPRPWCYTLDPHTRWEYCAIKTCADNTMNDTDVPLETTECIQGQGEGYRGTVNTIWNGIPCQRWDSQYPHEHDMTPENFKCKDLRENYCRNPDGSESPWCFTTDPNIRVGYCSQIPNCDMSHGQDCYRGNGKNYMGNLSQTRSGLTCSMWDKNMEDLHRHIFWEPDASKLNENYCRNPDDDAHGPWCYTGNPLIPWDYCPISRCEGDTTPTIVNLDHPVISCAKTKQLRVVNGIPTRTNIGWMVSLRYRNKHICGGSLIKESWVLTARQCFPSRDLKDYEAWLGIHDVHGRGDEKCKQVLNVSQLVYGPEGSDLVLMKLARPAVLDDFVSTIDLPNYGCTIPEKTSCSVYGWGYTGLINYDGLLRVAHLYIMGNEKCSQHHRGKVTLNESEICAGAEKIGSGPCEGDYGGPLVCEQHKMRMVLGVIVPGRGCAIPNRPGIFVRVAYYAKWIHKIILTYKVPQS
As for B1, the “stimulation of cell survival by HGF protein alone” value (200 ng/ml (FIG. 11A)) was “no activity” and the “stimulation of cell survival by HGF protein alone” value (400 ng/ml (FIG. 6A)) was “no activity”.
